# Ab-14 light chain CDR variants: yeast mating affinities

The measurements come from Engelhart et al. 2022 (doi:10.1038/s41597-022-01779-4) through the FLAb antibody collection.

The target is the same throughout: PDVDLGDISGINAS, from the HR2 region of SARS-CoV-2 spike.

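The starting antibody came from a phage panning campaign against this peptide. The library (AAYL50) carries one to three amino acid substitutions per variant, with no insertions or deletions. AlphaSeq pools MATa yeast showing the antibodies with MATalpha yeast showing the peptide. Mating (16 h, 30 °C) was followed by selection of diploids and sequencing of their barcodes. The ratio of observed to expected reads was calibrated, replicate by replicate, on BCL2-family standards whose Kd was known from biolayer interferometry. There are three technical replicates.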

Parent: Ab-14, a human scFv built as VH, the linker GGGGSGGGGSGGGGS, VL. Only the CDRs of the light chain vary.
VH: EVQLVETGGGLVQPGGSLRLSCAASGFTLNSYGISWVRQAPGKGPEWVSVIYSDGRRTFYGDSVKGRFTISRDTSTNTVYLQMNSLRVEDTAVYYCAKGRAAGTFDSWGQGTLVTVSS
VL: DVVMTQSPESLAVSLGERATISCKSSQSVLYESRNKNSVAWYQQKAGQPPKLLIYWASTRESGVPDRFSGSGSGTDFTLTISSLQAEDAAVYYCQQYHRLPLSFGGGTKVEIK

Changes read parent residue, position, new residue, counted from the first residue of the VL shown. This list gathers variants with a substitution at N35 (VL, numbered from residue 1). Values are apparent Kd, the geometric mean of the replicates that gave a signal; lower means stronger binding. "nd" means that the variant was in the library but no mating with the target was seen in any replicate; the authors take this as a sign of poor binding, and no number exists. In this assay the parent's reference entry averaged 4.4 nM; its copy inside this library read 48 nM. Three control strains display no target. For library AAYL50, 18% of the pairings with them gave a signal, with a median of 15 µM and one signal in twenty below 970 nM, so weak values seen in few replicates may be background.

With S28D/N35D/Q95D the result was nd (0 of 3 replicates).
With N35D/A40N/E61F the result was nd (0 of 3 replicates).
With N35H/E61I/L100G the result was 100 nM (2 of 3 replicates).
With S25D/N35Y/L100Y the result was 2.2 µM (2 of 3 replicates).
With N35G/K36L the result was 3.3 nM (3 of 3 replicates).
With N35S/P101S the result was 53 µM (2 of 3 replicates).
With N35D/A40S/Q95P the result was nd (0 of 3 replicates).
With N35D/L102K/S103T the result was 220 µM (1 of 3 replicates).
With N35I/W56S/L102K the result was 9.3 nM (3 of 3 replicates).
With S33H/N35H the result was 92 nM (3 of 3 replicates).
With N35I/S38I/V39W the result was nd (0 of 3 replicates).
With N35V/A57L/T59E the result was 280 nM (3 of 3 replicates).
With N35P/S62Q/L100C the result was 3.6 µM (3 of 3 replicates).
With K24E/Y31I/N35M the result was 13 nM (3 of 3 replicates).
With K24T/N35K/E61A the result was 32 nM (3 of 3 replicates).
With S28T/N35T the result was 47 nM (3 of 3 replicates).
With K24R/N35F/S103L the result was 120 nM (3 of 3 replicates).
With L30A/N35E/H98L the result was 29 nM (3 of 3 replicates).
With N35A/R60D the result was nd (0 of 3 replicates).
With S25G/N35L/L102T the result was nd (0 of 3 replicates).
With N35P/R99T/S103K the result was 9.4 µM (3 of 3 replicates).
With N35I the result was 19 nM (3 of 3 replicates).
With E32N/N35E/S62R the result was 7.9 nM (3 of 3 replicates).
With Y31F/N35T/V39H the result was nd (0 of 3 replicates).
With N35A/L100Q/P101I the result was 67 µM (1 of 3 replicates).
With N35F/N37S/S62Y the result was 550 nM (1 of 3 replicates).
With K24L/N35V/E61I the result was 8.8 µM (2 of 3 replicates).
With N35T/K36A the result was 11 nM (3 of 3 replicates).
With N35A/V39W/R60E the result was nd (0 of 3 replicates).
With V29S/N35H/T59V the result was 17 nM (3 of 3 replicates).
With N35M/W56C/H98D the result was 57 nM (3 of 3 replicates).
With L30N/N35A/A40Y the result was 2.5 µM (1 of 3 replicates).
With S28D/V29K/N35Y the result was 77 nM (3 of 3 replicates).
With K24A/N35E/P101A the result was nd (0 of 3 replicates).
With Q27Y/N35T/A57M the result was 1.8 µM (2 of 3 replicates).
With S28N/E32S/N35M the result was 25 nM (3 of 3 replicates).
With N35M/W56M/H98C the result was 370 nM (3 of 3 replicates).
With N35T the result was 31 nM (3 of 3 replicates).
With S26M/N35S/A40T the result was nd (0 of 3 replicates).
With S25F/N35C/L102D the result was nd (0 of 3 replicates).
With Y31Q/N35P/S58A the result was 130 nM (3 of 3 replicates).
With N35R/S38F/W56E the result was 2.4 µM (3 of 3 replicates).
With R34C/N35D/T59W the result was 140 nM (3 of 3 replicates).
With N35H/R99T/S103G the result was 480 nM (3 of 3 replicates).
With S33G/N35P/Q96L the result was 480 nM (2 of 3 replicates).
With K24A/N35M/L100P the result was 130 nM (3 of 3 replicates).
With N35L/K36T/Q95D the result was nd (0 of 3 replicates).
With S25E/Y31A/N35C the result was 400 nM (3 of 3 replicates).

The 4 strongest on average among those seen in every replicate, once more:

Variant N35G/K36L gave 3.3 nM (3 of 3 replicates).
Variant E32N/N35E/S62R gave 7.9 nM (3 of 3 replicates).
Variant N35I/W56S/L102K gave 9.3 nM (3 of 3 replicates).
Variant N35T/K36A gave 11 nM (3 of 3 replicates).